# The list shows a part of the results, in another mix than the full data. Some compounds were tested as several samples or in several runs, with calls that do not always agree. Active and inactive are the calls of the source. No stated cut-off is given here; in the data, active means growth inhibition above about 70%; inactive means the rest.
# Assay: NCI Yeast Anticancer Drug Screen. Data for the wt1 strain (AID 149);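 further: 0% = growth of vehicle-treated wt1 cultures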
# Details: S. cerevisiae wt1 strain (SPY 50644) growth inhibition, stronger effect = higher value
# Description: Growth inhibition of yeast strains with defined genetic alterations is measured as a screen for potential anti-cancer activity. Selected strains with alterations in DNA damage repair or cell cycle control were exposed to compounds and growth inhibition was measured relative to vehicle treated controls. The strain used in this assay is wt1
SMILES,growth inhibition (at 1.2 µM),growth inhibition (at 3.7 µM),growth inhibition (at 11.0 µM),growth inhibition (at 33.0 µM),growth inhibition (at 100.0 µM)
CC(C)c1nc(Nc2ccccc2)n(P(=O)(N(C)C)N(C)C)n1,inactive: -19%,inactive: -11%,inactive: -26%,inactive: 35%,active: 95%
O=C1OC(C(Cl)(Cl)Cl)Sc2ccccc21 (stereo not given),inactive: -2%,inactive: -1%,inactive: 2%,inactive: 11%,inactive: 23%
NC(Cc1cnc[nH]1)C(=O)O (stereo not given),inactive: -3%,inactive: 24%,active: 93%,active: 98%,active: 99%
COc1cccc(C[N+](C)(CCCl)CCCl)c1[N+](=O)[O-],inactive: -3%,inactive: 0%,inactive: -5%,inactive: 0%,inactive: 8%
N#Cc1cc([N+](=O)[O-])cc([N+](=O)[O-])c1N,inactive: 5%,inactive: 14%,inactive: 25%,inactive: 52%,active: 79%
FC1(F)SC2C(C1(F)F)C1(Cl)C(Cl)=C(Cl)C2(Cl)C1(Cl)Cl (stereo not given),inactive: 14%,active: 93%,active: 99%,active: 99%,active: 98%
O=[N+]([O-])c1cc([N+](=O)[O-])c2nsnc2c1,inactive: 5%,inactive: 46%,active: 100%,active: 99%,active: 99%
CN(C)P(=O)(N(C)C)n1c(Nc2ccccc2)nnc1-c1ccccc1,inactive: 0%,inactive: 11%,inactive: 12%,active: 98%,active: 97%

# Reference: PubChem BioAssay (NCI)
